Test results reported in patent US20240239785A1, “SUBSTITUTED 2-(2,6-DIOXOPIPERIDIN-3-YL)-5-(1-PIPERIDIN-4-YL)ISOINDOLINE-1,3-DIONE DERIVATIVES AND USES THEREOF” (Neomorph, Inc., priority 2021, published 2024).

Chains of the proteins cited; added tags and fusions are not shown.
UniProt Q96SW2, whole entry: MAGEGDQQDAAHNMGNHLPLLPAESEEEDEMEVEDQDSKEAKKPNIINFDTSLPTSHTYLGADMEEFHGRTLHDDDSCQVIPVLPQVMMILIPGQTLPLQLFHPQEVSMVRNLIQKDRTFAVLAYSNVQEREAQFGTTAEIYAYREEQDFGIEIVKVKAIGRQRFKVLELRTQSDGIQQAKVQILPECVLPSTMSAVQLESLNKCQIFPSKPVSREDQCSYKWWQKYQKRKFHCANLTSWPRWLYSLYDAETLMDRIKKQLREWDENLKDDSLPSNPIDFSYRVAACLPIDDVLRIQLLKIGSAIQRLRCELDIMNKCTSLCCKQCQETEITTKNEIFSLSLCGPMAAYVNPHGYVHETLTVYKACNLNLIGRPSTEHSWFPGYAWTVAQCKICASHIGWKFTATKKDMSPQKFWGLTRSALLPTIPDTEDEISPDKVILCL
UniProt Q9UKS7, whole entry: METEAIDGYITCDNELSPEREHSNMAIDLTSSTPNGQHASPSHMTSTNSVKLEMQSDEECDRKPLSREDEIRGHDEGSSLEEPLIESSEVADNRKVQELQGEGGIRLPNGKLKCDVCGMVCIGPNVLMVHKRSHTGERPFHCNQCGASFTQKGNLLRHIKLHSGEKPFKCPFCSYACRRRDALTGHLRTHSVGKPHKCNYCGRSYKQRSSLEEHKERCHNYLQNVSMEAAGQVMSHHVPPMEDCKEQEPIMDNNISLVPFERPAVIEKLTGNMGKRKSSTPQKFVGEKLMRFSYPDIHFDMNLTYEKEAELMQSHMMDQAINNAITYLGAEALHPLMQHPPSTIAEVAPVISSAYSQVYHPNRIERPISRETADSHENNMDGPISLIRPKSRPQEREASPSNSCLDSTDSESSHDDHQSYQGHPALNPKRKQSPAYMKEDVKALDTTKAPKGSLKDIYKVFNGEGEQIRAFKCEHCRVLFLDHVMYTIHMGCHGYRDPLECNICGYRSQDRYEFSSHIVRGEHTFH
UniProt Q16531, whole entry partner: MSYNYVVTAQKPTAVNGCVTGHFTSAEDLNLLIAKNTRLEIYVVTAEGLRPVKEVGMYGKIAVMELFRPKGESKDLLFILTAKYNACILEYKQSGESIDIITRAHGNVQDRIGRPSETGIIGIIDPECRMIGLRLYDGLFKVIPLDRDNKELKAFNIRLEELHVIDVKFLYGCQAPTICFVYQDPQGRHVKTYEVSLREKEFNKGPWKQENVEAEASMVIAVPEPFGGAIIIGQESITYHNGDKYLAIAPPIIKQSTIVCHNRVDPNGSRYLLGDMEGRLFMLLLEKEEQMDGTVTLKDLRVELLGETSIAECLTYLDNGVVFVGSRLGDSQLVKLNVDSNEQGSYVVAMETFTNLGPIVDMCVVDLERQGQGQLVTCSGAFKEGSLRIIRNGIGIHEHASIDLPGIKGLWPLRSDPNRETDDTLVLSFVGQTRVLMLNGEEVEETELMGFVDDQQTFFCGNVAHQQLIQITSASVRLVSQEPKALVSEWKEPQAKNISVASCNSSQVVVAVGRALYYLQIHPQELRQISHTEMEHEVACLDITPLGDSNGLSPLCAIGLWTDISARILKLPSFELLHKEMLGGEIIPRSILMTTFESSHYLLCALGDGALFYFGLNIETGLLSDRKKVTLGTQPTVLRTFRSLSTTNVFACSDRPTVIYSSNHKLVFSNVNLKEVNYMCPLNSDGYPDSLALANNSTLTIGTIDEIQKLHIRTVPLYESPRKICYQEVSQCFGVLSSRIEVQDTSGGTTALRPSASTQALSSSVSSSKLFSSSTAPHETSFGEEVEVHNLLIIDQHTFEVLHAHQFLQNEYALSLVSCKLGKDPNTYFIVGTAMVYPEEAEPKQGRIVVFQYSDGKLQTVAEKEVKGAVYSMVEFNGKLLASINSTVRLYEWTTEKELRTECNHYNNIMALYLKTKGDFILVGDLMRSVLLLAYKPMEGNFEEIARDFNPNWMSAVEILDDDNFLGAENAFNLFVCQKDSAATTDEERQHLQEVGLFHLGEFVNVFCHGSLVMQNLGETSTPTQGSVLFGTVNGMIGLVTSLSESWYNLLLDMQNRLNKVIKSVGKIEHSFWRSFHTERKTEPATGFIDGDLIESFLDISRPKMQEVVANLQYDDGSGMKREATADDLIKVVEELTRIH

Target: IKZF2 (Homo sapiens, UniProt Q96SW2+Q9UKS7)
Experiment: MOLT4 IKZF2 HiBit assay
Conditions: MOLT4 IKZF2 HiBit cells, tested form: formate
Protocol: MOLT4 IKZF2 HiBit Assay Protocol:
This protocol used MOLT4 cells that were engineered using CRISPR/Cas9-mediated genomic insertion of HiBit, tagged to the N terminus of the IKZF2 coding sequence. Day 1. A 10-point dose response was created starting from 30 μM down to InM using a Tecan D300e. Next was added 8,000 cells/well of the MOLT4 IKZF2 HiBit cells to the compound plate. The compounds plate was incubated for 6 hours. Day 2. Nano-Glo HiBit Lytic Buffer/Nano-Glo HiBit Lytic substrate/LgBit Protein mix was added to each well and the compound plate was incubated for 15 minutes. Finally, luminescence signal was read using a BMG Labtech PHERAstar FSX. Data was normalized to DMSO and graphed using GraphPad Prism to determine the concentration points at which 50% of HiBiT-Helios degradation was achieved by each compound. The extent of degradation (range of luminescence) from the highest to lowest concentration points was calculated to determine Dmax.

For CCn1cc(CN2CCC(O)(c3ccc4c(c3)C(=O)N(C3CCC(=O)NC3=O)C4=O)CC2)cn1 (centres unmarked), the “% reduction of IKZF2 @ 30 μM (6 hr)” value (30 μM, 6 hr (Dmax)) was 64% and the DC50 (read-out: IKZF2 DC50, 6 hours incubation, 10-point dose response from 30 μM) was 136 nM.
